System: Colon 6044 (human colon carcinoma)
Experiment: Antitumour activity in Co6044 after oral administration (Table 3)
Conditions: all tested doses (120, 180, 240 mg/kg)

Nc1ccn([C@@H]2O[C@H](CO)[C@@H](O)C2(F)F)c(=O)n1 [Gemcitabine, 2′,2′-difluorodeoxycytidine, reference compound]
toxicity after oral administration (in words): toxic at all tested doses
